Type: physicochemical
Conditions: moderately clean produced water, formulation partially reacted with acid

Chlorite ion [ClO2^−]
time for which activity is detected / ion lasts: 4 to 7 days
